The results in this text go back to PubChem BioAssay AID1259399 (Fisher Drug Discovery Resource Center, 2018).

Amino acid sequences for entries named in this document (tags omitted).
UniProt Q8C6L5, whole entry: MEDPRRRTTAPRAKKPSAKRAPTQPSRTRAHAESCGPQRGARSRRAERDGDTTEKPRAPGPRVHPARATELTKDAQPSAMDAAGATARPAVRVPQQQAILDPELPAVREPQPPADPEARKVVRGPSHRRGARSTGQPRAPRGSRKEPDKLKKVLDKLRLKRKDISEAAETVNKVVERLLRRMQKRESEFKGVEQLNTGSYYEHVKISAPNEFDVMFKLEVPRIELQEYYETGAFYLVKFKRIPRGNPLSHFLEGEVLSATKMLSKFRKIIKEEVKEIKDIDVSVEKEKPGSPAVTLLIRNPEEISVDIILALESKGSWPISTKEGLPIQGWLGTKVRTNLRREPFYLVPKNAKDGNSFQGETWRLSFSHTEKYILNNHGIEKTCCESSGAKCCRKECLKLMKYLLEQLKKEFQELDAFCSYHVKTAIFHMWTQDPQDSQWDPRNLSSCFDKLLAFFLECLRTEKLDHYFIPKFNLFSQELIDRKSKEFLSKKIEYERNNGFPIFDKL

The term inhibition denotes the drop in the measured response relative to a control, in per cent.

The structures appear in SMILES notation. This is a selection; strong and weak results do not stand in their true shares. Calls of active or inactive are those of the source. No stated cut-off is given here; in the data, active means inhibition above about 40%; inactive means the rest.

The assay concerns the target Cyclic GMP-AMP synthase (Mus musculus) (UniProt Q8C6L5). Nature of the assay: cyclic GMP-AMP synthase inhibitors, mouse, primary biochemical chemiluminescence (AID 1259399).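 Further: 0% = negative control wells and 100% = reference inhibitor with no enzyme activity.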 As to conditions: recombinant cGAS, Kinase-Glo ATP depletion luminescence; at 12.5 µM; hits give high values. On the technique in general: In Kinase-Glo more light means more ATP remaining.
On to `CP(=O)(Nc1ccc(Br)cc1)Oc1ccccc1` (stereo not drawn), for which the inhibition is inactive: -5.23%.

For the molecule `CCCCOc1ccc(NP(C)(=O)Oc2ccc(CC)cc2)cc1` (stereo not drawn), the inhibition was inactive: -6.03%.

With `CP(=O)(Nc1ccccc1Br)Oc1ccccc1` (stereo not drawn), the inhibition is inactive: -7.48%.

For the molecule `Nc1nonc1N=Nc1nonc1N`, the inhibition is inactive: 2.08%.

In the case of `CC(=O)N(CCN(C(C)=O)[N+](=O)[O-])[N+](=O)[O-]`, the inhibition was inactive: -6.18%.

Regarding `Cc1ccc(Cl)cc1NP(C)(=O)Oc1ccccc1` (stereo not drawn), the inhibition was inactive: -2.25%.

Consider `CN([N+](=O)[O-])C(Br)([N+](=O)[O-])[N+](=O)[O-]`, for which the inhibition is inactive: -1.59%.

For the molecule `Cc1ccc(NP(C)(=O)Oc2ccc(Cl)cc2)cc1` (stereo not drawn), the inhibition was inactive: -7.36%.

Turning to `CP(=O)(O)OC(c1ccccc1)C(F)(F)C(F)(F)F` (stereo not drawn), the inhibition is inactive: -8.24%.

In the case of `COc1ccc(OP(C)(=O)Nc2ccc(Br)cc2)cc1` (stereo not drawn), the inhibition was inactive: -6.01%.

Turning to `CP(=O)(Oc1ccc(F)cc1)OC(c1ccccc1)C(F)(F)F` (stereo not drawn), the inhibition is inactive: -5.88%.

As to `CP(=O)(Nc1cccc(F)c1)Oc1ccc(Cl)cc1` (stereo not drawn), the inhibition is inactive: -6.26%.

As for `Cn1cc([N+](=O)[O-])nc1[N+](=O)[O-]`, the inhibition is inactive: -4.58%.
